Experimental data: US20100150868A1, “Methods of Individually Optimizing Treatment for an Inflammation Associated Disease” (Tel HaShomer Medical Research Infrastructure and Services …, priority 2005, published 2010)

Tests used:
[1] = healthy volunteers, IM administration of 6 MIU; cited from earlier work
[2] = test system: TNF-α secretion of MOG stimulated PBMC; assay: In-vitro TNF-α secretion in PBMC culture with immunomodulatory drug (IDMM, ELISA); type: cell-based, human; conditions: 40 U/ml
Excerpt: All immunomodulatory drugs used for the treatment of MS patients are known to reduce pro-inflammatory cytokine production and specifically TNF-α. For example, the secretion of TNF-α in a short-term peripheral blood mononuclear cell (PBMC) culture is inhibited by the presence of an immunomodulatory drug. In order to design a method for comparing immunomodulatory drugs for the treatment of MS, PBMCs were specifically stimulated by an MS autoantigen, the encephalitogenic peptide, myelin oligodendrocyte glycoprotein (MOG) so as to induce over-expression of autoreactive cells specific for MS.
As various immunomodulatory drugs are formulated differently and are delivered by different routes of administration, appropriate drug concentrations were established for the IDMM. The in-vitro concentration for each drug was calculated according to the serum levels acquired after in-vivo injections or according to functional equivalent tests. The drug concentrations used in the IDDM are provided below in Table 1.
15 cc of blood was withdrawn from each patient. […]
Following a 48 hour incubation, TNF-α levels were measured in the supernatants by ELISA using commercial kits (R&D).

[3] = test system: mitogen-induced PBMC TNF-α production; conditions: healthy volunteers, cited from earlier work

Molecule	mean serum activities [1] [U/ml]	suppression of TNF-α secretion [2]	suppression of mitogen-induced PBMC TNF-α production ([3]; 6 MIU three times per week)	inhibition of mitogen-induced PBMC TNF-α production ([3]; an injection of 6 MIU (22 μg), dependent on the mitogen)
Avonex: IFN-b-1a (Avonex™), immunomodulatory drug for MS	25			
Rebif: IFN-b-1 a (Rebif™), immunomodulatory drug for MS (protein, UniProt P01574 22-187, looked up, interferon beta-1a, IFN-b-1 a (Rebif™), immunomodulatory drug for MS) Interferon beta: MSYNLLGFLQRSSNFQCQKLLWQLNGRLEYCLKDRMNFDIPEEIKQLQQFQKEDAALTIYEMLQNIFAIFRQDSSSTGWNETIVENLLANVYHQINHLKTVLEEKLEKEDFTRGKLMSSLHLKRYYGRILHYLKAKEYSHCAWTIVRVEILRNFYFINRLTGYLRN		29-38%	29-38%	8-13%
